Assay results as given in patent US20220370630A1, “TRANSMUCOSAL DELIVERY SYSTEM FOR PHARMACEUTICAL ACTIVE INGREDIENT TO SUBMUCOSAL TISSUE OF BLADDER” (SEIKAGAKU CORPORATION, priority 2019, published 2022).

How the values were obtained:
[1] = Release test: release ratio of API from the derivative in phosphate buffer solution pH 7.4 at 36° C., HPLC; assay type: physicochemical; conditions: phosphate buffer pH 7.4, 36° C.; for Release ratio of API: 5 mg/10 mL; for Release rate: slope of release ratio against time
Protocol: In Examples pertaining to a release test, a release ratio of a pharmaceutical active ingredient (API) from a chondroitin sulfate derivative and a hyaluronic acid derivative, each of which was not fluorescently labeled was evaluated as follows. […] The release ratio was calculated based on the ratio of peak areas of HPLC corresponding to the amount of API in the derivative and the amount of released API using a size-exclusion chromatography column (TSKgel α, manufactured by Tosoh Corporation). Release ratio (%)=peak area of released API/(peak area of API in each derivative+peak area of released API)×100 Also with respect to the hyaluronic acid derivatives of Comparative Examples 2 to 3, evaluation was performed in the same manner as for Examples.

[2] = Evaluation using rat 1: fluorescence imaging of bladder frozen sections after administration of fluorescently labeled compounds to the lumen of the bladder, integrated luminance; assay type: in vivo; conditions: for Integrated value of luminance (on day 1 after administration): relative value based on Example 1, 0.2 mL of 1% (w/v) into the bladder lumen for 30 minutes, hydrochloric acid-pretreated female SD rat, frozen section
Protocol: The concentration of each of the fluorescently labeled compounds in the test substances was set to 1% (w/v).
The lower abdomen of a rat (SD strain (SPF), female, at 7 to 9 weeks of age) was pressed under isoflurane inhalation anesthesia (concentration: 2.0 to 4.0%, flow rate: 2 to 3 L/min) to evacuate residual urine from the bladder of the rat. A catheter (PE50) was transurethrally inserted into the lumen of the bladder, and the lumen of the bladder was washed with 0.2 mL of physiological saline. Thereafter, 0.2 mL of 0.4 mol/L hydrochloric acid was injected into the lumen of the bladder and allowed to stay there for 3 minutes and 15 seconds. After allowing hydrochloric acid to stay there, the lumen of the bladder was washed four times with 0.4 mL of physiological saline.
On day 1 after the pretreatment, 0.2 mL of each test substance was transurethrally administered to the lumen of the bladder using a catheter (PE50) under isoflurane inhalation anesthesia and allowed to stay there for 30 minutes.
On day 1 after the administration of the test substance, the bladder of the rat was collected, and a frozen section was prepared perpendicularly to an axis connecting the top of the bladder to the urethra. With respect to the frozen section, a bright field image (visible light) and a fluorescent image (excitation wavelength: 470 nm, absorption wavelength: 525 nm) were captured using a fluorescence microscope. Further, the obtained fluorescent image was analyzed by Hybrid Cell Count of Software (BZ-X Analyzer) attached to the fluorescence microscope. The extraction threshold for fluorescence was set to 40, and an integrated value of the luminance of each fluorescent image was calculated.

2-aminoethyl-naproxen-introduced CS [CS-NAP-conjugate]
Release ratio of API ([1]; elapsed time 0 days): 0.08%
Release ratio of API ([1]; elapsed time 1 day): 0.27%
Release ratio of API ([1]; elapsed time 2 days): 0.39%
Release ratio of API ([1]; elapsed time 3 days): 0.52%
Release ratio of API ([1]; elapsed time 4 days): 0.68%
Release ratio of API ([1]; elapsed time 5 days): 0.82%
Release ratio of API ([1]; elapsed time 6 days): 0.97%
Release ratio of API ([1]; elapsed time 7 days): 1.06%
Release rate [1]: 0.14%/day

21-β-Alanyl-Triamcinolone Acetonide-Introduced HA [HA-TA-conjugate, reference compound]
Release ratio of API ([1]; elapsed time 0 days): 23.23%
Release ratio of API ([1]; elapsed time 1 day): 32.86%
Release ratio of API ([1]; elapsed time 2 days): 40.59%
Release ratio of API ([1]; elapsed time 3 days): 47.40%
Release ratio of API ([1]; elapsed time 4 days): 53.06%
Release ratio of API ([1]; elapsed time 5 days): 57.00%
Release ratio of API ([1]; elapsed time 6 days): 61.61%
Release ratio of API ([1]; elapsed time 7 days): 63.76%
Release of API (result in words) ([1]; 1 week): a substantial release of the active ingredient was already confirmed at the start of the test
Release rate [1]: 5.74%/day

21-β-alanyl-triamcinolone acetonide-introduced CS [CS-TA-conjugate]
Release ratio of API ([1]; elapsed time 0 days): 0.10%
Release ratio of API ([1]; elapsed time 1 day): 1.22%
Release ratio of API ([1]; elapsed time 2 days): 1.91%
Release ratio of API ([1]; elapsed time 3 days): 2.93%
Release ratio of API ([1]; elapsed time 4 days): 3.92%
Release ratio of API ([1]; elapsed time 5 days): 4.52%
Release ratio of API ([1]; elapsed time 6 days): 5.73%
Release ratio of API ([1]; elapsed time 7 days): 6.17%
Release rate [1]: 0.48%/day

Fluorescently Labeled 2-Aminoethyl-Diclofenac-Introduced CS [Fluorescently labeled CS-DIC-conjugate]
Integrated value of luminance (on day 1 after administration) [2]: 2.36

Fluorescently Labeled 3-Aminopropyl Cinnamate-Introduced HA [Fluorescently labeled HA-CIN-conjugate, reference compound]
Integrated value of luminance (on day 1 after administration) [2]: 0.05

Fluorescently Labeled 21-β-Alanyl-Triamcinolone Acetonide-Introduced CS [Fluorescently labeled CS-TA-conjugate]
Integrated value of luminance (on day 7 after administration) ([2]; rat, in vivo): 1.00
